Hits are enriched below; roughly 2.2% of the tested compounds scored in any of these assays.
Nrf2 ARE act: Nrf2 pathway activation; 410,000 compounds, 0.31% hits; AREc32 ARE-luciferase reporter (MCF7-derived line), luminescence, 24 h; AID 624171; Potency, µM (doses to about 46.1 µM), usual class: activators; further: nearly all actives have a fitted effect of over 65% in size
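AREc32 cells carrying an ARE-driven firefly luciferase reporter were seeded at 1000 cells/well in OPTI-MEM with 5% FBS, then exposed to compound for 24 hr at 37 deg C. Luminescence was read with Steady-Glo after 30 min at RT.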
miR-21 reporter: miR-21 reporter, rising signal | AID 2288 | HeLa miR-21 FLuc reporter, luciferase, 48 h | 340,000 tested, under 10 active | Potency, µM (doses to about 38.3 µM); active = well fitted rising curve with a large enough effect; inconclusive = small, poorly fitted or top-dose-only effect; inactive = no such curve, though single readings can be large or run the other way;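 note: miR-21 action dims this reporter so a rising signal means less miR-21 action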
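Compounds were titrated across several concentrations (up to approximately 40 uM) and incubated 48 hours with HeLa miR-21-FLuc reporter cells (miR-21 target sequence downstream of FLuc, endogenous miR-21). Readout was firefly luciferase luminescence after lytic detection reagent.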
Nrf2 block: Nrf2 pathway inhibition | 360,000 compounds, 2.1% hits | A549 ARE-Fluc reporter, luciferase luminescence, 18-24 h | Potency, µM (top dose mostly 46 µM), most hits filed as inhibitors | AID 504444; further: nearly all actives have a fitted effect of over 60% in size
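Reporter: ARE-Fluc in A549. Exposure: 18-24 h, 37 °C, 5% CO2, 5% FBS OPTI-MEM. Readouts: fluorescent cytotoxicity (CellTiter-Fluor), then luminescent Nrf2 signal after BugLite.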
A549 tox-1: kills or reduces viability of A549 cells in Nrf2 counter-screen; A549 ARE-Fluc cells, CellTiter-Fluor viability, 18-24 h; Potency, µM (doses to about 46 µM), hits mostly inhibitors; 390,000 compounds, 0.16% hits; AID 504648
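A549 ARE-Fluc cells in 5% FBS OPTI-MEM, 5000 cells/well, rested 2 h then exposed to compounds in concentration-response for 18-24 h at 37 °C. Viability by CellTiter-Fluor fluorescence (Ex 405/Em 525) after 30 min; luciferase luminescence (BugLite, 15 min, RT) read afterwards.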
B2AR arrestin: recruits beta-arrestin to the human beta2-adrenergic receptor. P07550. beta-arrestin recruitment to beta2AR, cell-based reporter. Potency, µM (doses to about 46.1 µM), usual class: activators. 330,000 compounds, 0.02% hits; further: nearly all actives have a fitted effect of over 65% in size
FLuc counter 3: counter-screen for Nrf2 inhibitors: firefly luciferase enzyme inhibition. Potency, µM (doses to about 57.5 µM), most hits filed as inhibitors. AID 720522. shares compounds with Nrf2 block. 1,400 compounds, 4% hits. purified firefly luciferase, luminescence inhibition; further: nearly all actives have a fitted effect of over 65% in size
A549 tox-2: toxic to A549 ARE-Fluc cells in Nrf2 counterscreen; shares compounds with Nrf2 block; A549 ARE-Fluc cells, cytotoxicity counterscreen; Potency, µM (top dose mostly 46.1 µM), most hits filed as inhibitors; 1,400 compounds, 2% hits;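 further: cells exposed to compounds for 18 to 24 hours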
ARE-Fluc inh: reduces Nrf2 ARE reporter signal in A549 cells. shares compounds with Nrf2 block. A549 ARE-firefly luciferase reporter, luminescence. Potency, µM (top dose mostly 46.1 µM), usual class: inhibitors. 1,400 compounds, 74% hits; further: nearly all actives have a fitted effect of over 65% in size
Numbers stand for hits; . = inactive; ? = inconclusive; / = no result; [ ] = remark or other dose. Unless noted, the call rests on the fitted dose curve; in most records, active means well fitted curve in the direction sought with a large enough effect; inconclusive means small, poorly fitted or top-dose-only effect, or another doubt; inactive means no such curve, though single readings can be large; an effect the other way counts as inactive or inconclusive.

SMILES	Nrf2 ARE act	miR-21 reporter	Nrf2 block	A549 tox-1	B2AR arrestin	FLuc counter 3	A549 tox-2	ARE-Fluc inh
Cc1ccc(NC(=O)C2CCCN(c3nnc(C)c4c(C)n(-c5ccccc5)nc34)C2)c(Cl)c1 (centres undefined)	.	.	?	.	/	/	/	/
CCOc1ccc(S(=O)(=O)NCc2ccncc2)cc1	.	.	0.41µM	.	.	.	.	0.65µM
CCOc1cc(S(=O)(=O)NCc2ccncc2)ccc1Cl	.[9.22 µM]	.	1µM	.	.	.	.	1.3µM
CC1CCCCC1NS(=O)(=O)c1ccc(S(=O)(=O)NCc2ccncc2)cc1 (centres undefined)	.	.	2.3µM	.	.	.	.	3.7µM
Cc1ccc(S(=O)(=O)NCc2ccncc2)cc1	.	.	2.6µM	.	.	.	.	18µM
Cc1ccc(S(=O)(=O)NCC(=O)NCc2ccncc2)cc1	.	.	.	.	.	/	/	/
CCC1CCCCN1C(=O)CCS(=O)(=O)c1cc2c(cc1C)NC(=O)CO2 (centres undefined)	.	.	?	.	/	/	/	/
CCOc1ccc(OCC)c(Nc2cc(C)nc3nc(-c4ccco4)nn23)c1	.	.	/	.	/	/	/	/
Cn1nnc2c(N3CCN(c4ccccc4Cl)CC3)ncnc21	.	.	/	.	/	/	/	/
Cc1cc(S(=O)(=O)NCc2ccncc2)c(C)cc1Br	.	.	4.1µM	.	.	.	.	?
CCOc1ccc(NC(=O)Cn2c3ncccc3c(=O)n2-c2ccc(CC)cc2)cc1	.	.	.	.	/	/	/	/
COc1ccc(NC(=O)CN2C(=O)c3cccnc3Sc3ccccc32)cc1OC	.	.	.	.	/	/	/	/
Cc1ccc(NC(=O)CN2C(=O)c3cccnc3Sc3ccccc32)cc1C	.	.	?	.	/	?	.	.
CCc1ccc(NC(=O)Cn2c(-c3cncs3)nc3ccccc32)cc1	.	.	.	.	/	/	/	/
CCOC(=O)CCN(c1ccccc1)S(=O)(=O)c1cc(-c2cc(C)no2)ccc1C	.	.	?	.	/	/	/	/
CC(C)Cn1c(=O)c2sccc2n2c(CCCC(=O)NCCc3ccc(Cl)cc3)nnc12	.	.	.	.	/	/	/	/

Compound activity: PubChem, National Center for Advancing Translational Sciences (NCATS)
